Experimental data as given in patent publication US9896436B2, “Histone demethylase inhibitors” (Celgene Quanticel Research, Inc., priority 2014, dated 2018).

Sequences of proteins named here, by UniProt entry; tags and fusion partners are left off. Residues count along the entry.
UniProt Q8NHM5, 1-650: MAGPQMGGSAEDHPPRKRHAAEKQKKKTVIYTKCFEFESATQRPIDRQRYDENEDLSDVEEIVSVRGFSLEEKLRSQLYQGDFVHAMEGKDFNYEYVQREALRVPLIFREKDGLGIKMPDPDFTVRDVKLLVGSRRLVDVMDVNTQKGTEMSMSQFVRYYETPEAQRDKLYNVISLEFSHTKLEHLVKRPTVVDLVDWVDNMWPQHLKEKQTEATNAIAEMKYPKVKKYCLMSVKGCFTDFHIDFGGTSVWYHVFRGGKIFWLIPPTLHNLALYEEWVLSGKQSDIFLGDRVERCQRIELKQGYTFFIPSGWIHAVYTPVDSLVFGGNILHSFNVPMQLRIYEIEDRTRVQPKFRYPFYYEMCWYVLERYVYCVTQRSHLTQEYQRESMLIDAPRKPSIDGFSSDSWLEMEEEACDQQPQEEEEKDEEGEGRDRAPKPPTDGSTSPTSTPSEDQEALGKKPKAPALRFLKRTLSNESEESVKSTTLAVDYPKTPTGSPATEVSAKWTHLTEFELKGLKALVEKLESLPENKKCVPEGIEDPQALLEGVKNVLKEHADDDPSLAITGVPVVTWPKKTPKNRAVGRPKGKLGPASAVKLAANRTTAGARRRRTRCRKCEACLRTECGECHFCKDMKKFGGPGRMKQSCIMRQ

Target: FBXL10 (Homo sapiens (Human), UniProt Q8NHM5)
Assay: FBXL10 in vitro enzyme inhibition assay (AlphaScreen)
Format: biochemical
Conditions: Table 5
Description: This assay determines the ability of a test compound to inhibit FBXL11, FBXL10, and PHF8 demethylase activity. […] Baculovirus expressed FBXL10 (GenBank Accession #NM_032590, AA 1-650) was purchased from BPS Bioscience (Cat #50120). Baculovirus expressed PHF8 (GenBank Accession NP_055922.1) was purchased from Active Motif (Cat#31435).
The ability of test compounds to inhibit the activity of FBXL10 was determined in 384-well plate format under the following reaction conditions: 0.3 nM FBXL10, 30 nM H3K36me2-biotin labeled peptide (Anaspec cat #64442), 0.2 μM alpha-ketoglutaric acid in assay buffer of 50 mM HEPES, pH7.3, 0.005% Brij35, 0.5 mM TCEP, 0.2 mg/ml BSA, 50 μM sodium L-ascorbate, 5 μM ammonium iron(II) sulfate. Reaction product is determined quantitatively by AlphaScreen detection after the addition of detection reagents anti-H3K36me1 antibody, AlphaScreen® Streptavidin-coated Donor beads, and AlphaScreen® Protein A Acceptor beads in 50 mM HEPES, pH7.3, 10 mM NaCl, 0.005% Brij35, 5 mM EDTA, 2 mg/ml BSA to final 10 μg/ml beads.
The assay reaction was initiated by the following: 3 μl of the mixture of 90 nM H3K36me2-biotin labeled peptide and 0.6 μM alpha-ketoglutaric acid with 3 μl of 11-point serial diluted inhibitor in 3% DMSO are added to each well of 384 well Proxiplate (Perkin Elmer), followed by the addition of 3 μl of 0.9 nM FBXL10 to initiate the reaction. […]

2-{1-[(6-fluoro-1,2,3,4- tetrahydronaphthalen-1-yl)methyl]-1H- imidazol-4-yl}-4-[5-(trifluoromethyl)-1H 1,2,3-triazol-4-yl]pyridine [Example 100]
IC50: 100 to 1000 nM
